{
  "source": "patent US4388237A",
  "about": "“6(1-Piperazinyl), piperidino and (1(homopiperazinyl)11-cyanomethylene morphanthridines” (BASF Aktiengesellschaft, priority 1979, dated 1983)",
  "type_in_all_cases": "in vivo",
  "key": {"female NMRI mice [1]": {"system": "female NMRI mice", "test": "Sedative effect (orientation hypermotility)", "conditions": "relative to Clozapin (1.00)", "method": "The substances are administered orally to groups of 4×3 or 8×3 female NMRI mice. The orientation hypermotility induced by a new environment is determined photoelectrically, 30 minutes after the administration of the substances, for a period of 30 minutes. The ED 50% is taken as the dose which reduces the orientation hypermotility by 50%, compared to untreated control animals."}, "female NMRI mice [2]": {"system": "female NMRI mice", "test": "Analgesic effect (D'Amour and Smith tail-flick method)", "conditions": "relative to Clozapin (1.00)"}, "female NMRI mice [3]": {"system": "female NMRI mice", "test": "Anti-cholinergic effect (protection against death from Physostigmin)", "conditions": "for Anti-cholinergic effect (in words): discussion of Table 1, Physostigmin antagonism", "method": "3. Anti-cholinergic effect\nA lethal dose (0.825 mg/kg) of Physostigmin is administered subcutaneously to groups of 10 female NMRI mice. The test substances are administered orally 30 minutes before administering the Physostigmin.\nThe ED 50% is the dose of substance which protects 50% of the animals against death from Physostigmin."}, "[4]": {"system": "female Sprague-Dawley rats", "test": "Apomorphine-antagonistic effect (jaw movements, mandibulogram)", "conditions": "relative to Clozapin (1.00)", "method": "4. Apomorphine-antagonistic effect\nJaw motions are triggered in groups of 4-6 female Sprague-Dawley rats by subcutaneous administration of 1.5 mg of apomorphine/kg, and are recorded by means of implanted electrodes (Kubacki mandibulogram, 1978) .\nThe ED 50% is the dose which reduces the number of jaw movements by 50% compared to untreated control animals."}},
  "note": "Entries after “also recorded” stand apart in the source; their conditions may differ.",
  "data": [
    {"molecule": "CCN1CCN(C2=Nc3ccccc3C(=CC#N)c3ccccc32)CC1", "note": "(mixture of isomers) [31 cis-trans M, cis,trans-11-Cyanomethylene-6-(4-ethyl-piperazin-1-yl)-morphanthridine]", "values": [
      {"measurement": "Sedative effect R.A. (relative activity)", "setting": "female NMRI mice [1]", "result": 1.42},
      {"measurement": "Analgesic effect R.A. (relative activity)", "setting": "female NMRI mice [2]", "result": "< 0.21"},
      {"measurement": "Anti-cholinergic effect (in words)", "setting": "female NMRI mice [3]", "result": "manifests itself especially"},
      {"measurement": "Anti-cholinergic effect R.A. (relative activity)", "setting": "female NMRI mice [3]; mouse, in vivo", "result": 1.81},
      {"measurement": "Apomorphine antagonism R.A. (relative activity)", "setting": "[4]", "result": 0.19}
    ]},
    {"molecule": "Cc1ccc2c(c1)N=C(N1CCN(C)CC1)c1ccccc1C2=CC#N", "note": "(mixture of isomers) [13a cis-trans M, cis,trans-3-Methyl-11-cyanomethylene-6-(4-methylpiperazin-1-yl)-morphanthridine]", "values": [
      {"measurement": "Sedative effect R.A. (relative activity)", "setting": "female NMRI mice [1]", "result": 5.90},
      {"measurement": "Analgesic effect R.A. (relative activity)", "setting": "female NMRI mice [2]", "result": 0.40},
      {"measurement": "Apomorphine antagonism R.A. (relative activity)", "setting": "[4]", "result": 0.23}
    ]},
    {"molecule": "CN1CCN(C2=Nc3ccccc3C(=CC#N)c3ccccc32)CC1", "note": "[1 cis-trans M, cis- and trans-11-Cyanomethylene-6-(4-methyl-piperazin-1-yl)-morphanthridine]", "values": [
      {"measurement": "Sedative effect R.A. (relative activity)", "setting": "female NMRI mice [1]", "result": 1.71},
      {"measurement": "Analgesic effect R.A. (relative activity)", "setting": "female NMRI mice [2]", "result": 0.04},
      {"measurement": "Anti-cholinergic effect (in words)", "setting": "female NMRI mice [3]; listed as Example 1 (cis-trans mixture)", "result": "manifests itself especially; also recorded: more strongly sedative and anti-cholinergic"},
      {"measurement": "Anti-cholinergic effect R.A. (relative activity)", "setting": "female NMRI mice [3]; mouse, in vivo", "result": 2.25},
      {"measurement": "Apomorphine antagonism R.A. (relative activity)", "setting": "[4]", "result": 0.37}
    ]},
    {"molecule": "Cc1ccc2c(c1)C(=CC#N)c1ccccc1C(N1CCN(C)CC1)=N2", "note": "(mixture of isomers) [13b cis-trans M, cis,trans-2-Methyl-11-cyanomethylene-6-(4-methyl-piperazin-1-yl)-morphanthridine]", "values": [
      {"measurement": "Sedative effect R.A. (relative activity)", "setting": "female NMRI mice [1]", "result": 1.41},
      {"measurement": "Analgesic effect R.A. (relative activity)", "setting": "female NMRI mice [2]", "result": 0.21},
      {"measurement": "Anti-cholinergic effect (in words)", "setting": "female NMRI mice [3]", "result": "manifests itself especially"},
      {"measurement": "Anti-cholinergic effect R.A. (relative activity)", "setting": "female NMRI mice [3]; mouse, in vivo", "result": 5.15},
      {"measurement": "Apomorphine antagonism R.A. (relative activity)", "setting": "[4]", "result": 0.19}
    ]},
    {"molecule": "Cc1ccc2c(c1)N=C(N1CCN(C)CC1)c1ccccc1/C2=C/C#N", "note": "[13a trans-isomer, trans-3-methyl-11-cyanomethylene-6-(4-methylpiperazin-1-yl)-morphanthridine]", "values": [
      {"measurement": "Analgesic effect R.A. (relative activity)", "setting": "female NMRI mice [2]", "result": 0.03},
      {"measurement": "Anti-cholinergic effect (in words)", "setting": "female NMRI mice [3]", "result": "stronger anti-cholinergic and apomorphine-antagonistic effect"},
      {"measurement": "Anti-cholinergic effect R.A. (relative activity)", "setting": "female NMRI mice [3]; mouse, in vivo", "result": 1.15},
      {"measurement": "Apomorphine antagonism R.A. (relative activity)", "setting": "[4]", "result": 0.42}
    ]},
    {"molecule": "Cc1ccc2c(c1)N=C(N1CCN(C)CC1)c1ccccc1/C2=C\\C#N", "note": "[13a cis-isomer, cis-3-methyl-11-cyanomethylene-6-(4-methyl-piperazin-1-yl)-morphanthridine]", "values": [
      {"measurement": "Sedative effect R.A. (relative activity)", "setting": "female NMRI mice [1]", "result": 4.47},
      {"measurement": "Analgesic effect R.A. (relative activity)", "setting": "female NMRI mice [2]", "result": 2.18},
      {"measurement": "Apomorphine antagonism R.A. (relative activity)", "setting": "[4]", "result": 0.09}
    ]},
    {"molecule": "CN1CCN(C2=Nc3ccccc3/C(=C\\C#N)c3ccccc32)CC1", "note": "[1 trans-isomer, trans-11-cyanomethylene-6-(4-methyl-piperazin-1-yl)-morphanthridine]", "values": [
      {"measurement": "Sedative effect R.A. (relative activity)", "setting": "female NMRI mice [1]", "result": "< 0.22"},
      {"measurement": "Analgesic effect R.A. (relative activity)", "setting": "female NMRI mice [2]", "result": "< 0.10"},
      {"measurement": "Anti-cholinergic effect R.A. (relative activity)", "setting": "female NMRI mice [3]; relative to Clozapin (1.00)", "result": 3.00},
      {"measurement": "Apomorphine antagonism R.A. (relative activity)", "setting": "[4]", "result": 0.67}
    ]},
    {"molecule": "CCN1CCN(C2=Nc3ccccc3/C(=C\\C#N)c3ccccc32)CC1", "note": "[31 trans-isomer, trans-11-cyanomethylene-6-(4-ethyl-piperazin-1-yl)-morphanthridine]", "values": [
      {"measurement": "Sedative effect R.A. (relative activity)", "setting": "female NMRI mice [1]", "result": "> 0.04"},
      {"measurement": "Analgesic effect R.A. (relative activity)", "setting": "female NMRI mice [2]", "result": "< 0.04"},
      {"measurement": "Anti-cholinergic effect (in words)", "setting": "female NMRI mice [3]", "result": "manifests itself especially; also recorded: stronger anti-cholinergic and apomorphine-antagonistic effect"},
      {"measurement": "Anti-cholinergic effect R.A. (relative activity)", "setting": "female NMRI mice [3]; mouse, in vivo", "result": 2.52},
      {"measurement": "Apomorphine antagonism R.A. (relative activity)", "setting": "[4]", "result": 0.37}
    ]},
    {"molecule": "CN1CCN(C2=Nc3ccccc3/C(=C/C#N)c3ccccc32)CC1", "note": "[1 cis-isomer, cis-11-cyanomethylene-6-(4-methylpiperazin-1-yl)-morphanthridine]", "values": [
      {"measurement": "Sedative effect R.A. (relative activity)", "setting": "female NMRI mice [1]", "result": 2.39},
      {"measurement": "Analgesic effect R.A. (relative activity)", "setting": "female NMRI mice [2]", "result": 0.07},
      {"measurement": "Anti-cholinergic effect R.A. (relative activity)", "setting": "female NMRI mice [3]; relative to Clozapin (1.00)", "result": 0.81},
      {"measurement": "Apomorphine antagonism R.A. (relative activity)", "setting": "[4]", "result": 0.17}
    ]}
  ]
}
